Data taken from patent US6436959B1 (priority 1998, dated 2002).

Biological target: opioid delta receptor (Homo sapiens, UniProt P41143)
Assay: High Throughput Screening Assay for Delta-Opioid Receptor Binding
Settings: percent inhibition of control binding of [3H]bremazocine (2.4 nM) at 25 μM test compound; cloned human receptor, CHO cell membranes

Point of comparison: `CCCN1CCC(N(c2ccc(C(=O)N(CC)CC)cc2)c2cccc(OC)c2)CC1.O=C(O)/C=C/C(=O)O`, “% I @ 25 μM” value 97%. Against it:
- CCCN1CCC(N(c2ccc(C(=O)N(CC)CC)cc2)c2cccc(OC(C)=O)c2)CC1.Cl — higher, 100%
- CCCN1CCC(N(c2ccccc2)c2ccc(C(=O)N(CC)CC)cc2)CC1.O=C(O)/C=C/C(=O)O — lower, 94%
